Patent publication US20240100023A1, “Compositions and Methods For Treating Spinal Cord Injuries” (priority 2020, published 2024)

System: hippocampal slices
Assay: Slice seizure assay (population spikes in hippocampal slices)
Settings: perfusion of slices; 200 μM is the limit of solubility of CX1739

picrotoxin
Concentration at which seizure activity is seen in hippocampal slices: 50 µM
